# Literature values in US10851096B2, “Aryl and heteroaryl amides for use as anti-proliferative, anti-thrombotic, and anti-viral agents” (Rutgers, The State University of New Jersey, priority 2016, dated 2020).
# Molecular target: T1, Mer (Homo sapiens, UniProt Q12866)
# T1 sequence (Q12866 21-999): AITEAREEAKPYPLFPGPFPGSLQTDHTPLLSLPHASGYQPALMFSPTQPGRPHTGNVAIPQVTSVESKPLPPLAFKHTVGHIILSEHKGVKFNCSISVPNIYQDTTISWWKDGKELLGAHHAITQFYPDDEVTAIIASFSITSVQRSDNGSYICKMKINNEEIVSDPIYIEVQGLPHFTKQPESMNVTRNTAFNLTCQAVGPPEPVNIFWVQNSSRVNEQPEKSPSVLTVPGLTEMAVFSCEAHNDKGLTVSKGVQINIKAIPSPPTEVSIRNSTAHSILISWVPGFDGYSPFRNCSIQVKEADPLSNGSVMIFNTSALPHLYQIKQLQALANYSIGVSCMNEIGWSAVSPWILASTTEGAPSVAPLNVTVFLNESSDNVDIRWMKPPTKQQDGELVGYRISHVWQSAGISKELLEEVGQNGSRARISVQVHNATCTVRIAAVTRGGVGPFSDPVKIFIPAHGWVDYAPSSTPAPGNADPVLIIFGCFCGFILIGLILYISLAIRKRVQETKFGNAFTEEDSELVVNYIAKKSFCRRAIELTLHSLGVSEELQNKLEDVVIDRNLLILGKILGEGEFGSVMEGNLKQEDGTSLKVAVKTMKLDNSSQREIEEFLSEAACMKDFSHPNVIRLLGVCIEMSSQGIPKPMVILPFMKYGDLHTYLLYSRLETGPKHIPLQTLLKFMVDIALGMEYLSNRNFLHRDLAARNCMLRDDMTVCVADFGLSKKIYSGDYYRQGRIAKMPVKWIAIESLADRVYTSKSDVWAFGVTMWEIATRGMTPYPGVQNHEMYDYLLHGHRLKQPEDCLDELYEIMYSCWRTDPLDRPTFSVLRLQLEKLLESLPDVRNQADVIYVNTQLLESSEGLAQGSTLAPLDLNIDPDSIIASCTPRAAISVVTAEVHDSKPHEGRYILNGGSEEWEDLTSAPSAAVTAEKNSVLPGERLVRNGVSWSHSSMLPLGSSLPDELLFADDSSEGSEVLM
# Conditions: cited from earlier work
smiles,measurement,value
Nc1nc(Nc2ccc3c(c2)CC[C@@H](N2CCCC2)CC3)nn1-c1cc2c(nn1)-c1ccccc1CCC2 [BGB324],IC50,700 nM
